Active and inactive are the calls of the source. The rule behind the calls is not given here.
Assays:
Format in all cases: cell-based
[1] = molecular target: T1, Stimulator of interferon genes protein (Mus musculus) (UniProt Q3TBT3); test: Antagonist activity at cGAS-STING pathway in mouse RAW-Blue ISG cells expressing SEAP reporter assessed as reduction in phosphorylated STING level at 5 uM preincubated with compound for 4 hrs followed by 2'-3' cGAMP addition and measured after 3 hrs by Western blot analysis; details: filed as antagonist, time 7.0 hrs
T1 sequence (whole entry): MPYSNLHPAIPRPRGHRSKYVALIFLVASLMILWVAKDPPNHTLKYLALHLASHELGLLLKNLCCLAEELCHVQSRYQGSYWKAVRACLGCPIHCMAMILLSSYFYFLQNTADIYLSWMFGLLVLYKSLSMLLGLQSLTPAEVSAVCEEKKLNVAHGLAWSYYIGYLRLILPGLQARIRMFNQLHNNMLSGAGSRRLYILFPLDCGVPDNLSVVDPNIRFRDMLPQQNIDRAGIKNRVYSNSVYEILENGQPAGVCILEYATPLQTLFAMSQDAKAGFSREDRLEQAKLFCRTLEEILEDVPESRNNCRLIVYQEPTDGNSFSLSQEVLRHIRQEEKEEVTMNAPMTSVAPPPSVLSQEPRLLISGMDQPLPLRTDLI

[2] = molecular target: T1, Stimulator of interferon genes protein (Mus musculus); test: Antagonist activity at cGAS-STING pathway in mouse RAW-Blue ISG cells expressing SEAP reporter assessed as reduction in interferon-beta mRNA level preincubated with compound for 6 hrs followed by 2'-3' cGAMP addition and measured after 3 hrs by RT-qPCR analysis; details: filed as antagonist, dose 0.005-1 µM, time 9.0 hrs
[3] = molecular target: T1, Stimulator of interferon genes protein (Mus musculus); test: Antagonist activity at cGAS-STING pathway in mouse RAW-Blue ISG cells expressing SEAP reporter assessed as reduction in phosphorylated IRF3 level at 5 uM preincubated with compound for 4 hrs followed by 2'-3' cGAMP addition and measured after 3 hrs by Western blot analysis; details: filed as antagonist, time 7.0 hrs
[4] = molecular target: T1, Stimulator of interferon genes protein (Mus musculus); test: Agonist activity at cGAS-STING pathway in mouse RAW-Blue ISG cells expressing SEAP reporter assessed as type 1 interferon production at 0.02 to 1 uM incubated for 24 hrs by QUANTI-Blue colorimetric assay; details: dose 0.02-1 µM
[5] = molecular target: T1, Stimulator of interferon genes protein (Mus musculus); test: Antagonist activity at cGAS-STING pathway in mouse RAW-Blue ISG cells expressing SEAP reporter assessed as reduction in type 1 interferon production preincubated with compound for 2 hrs followed by 2'-3' cGAMP addition and measured after 24 hrs by QUANTI-Blue colorimetric assay; details: filed as antagonist, dose 0.02-1 µM, time 26.0 hrs

Activity [1]: Active | Activity [2]: Dose-Dependent Effect | Activity [3]: Active | Activity [4]: inactive | Activity [5]: Dose-Dependent Effect
SMILES: c1n[nH]cc1-c1nc2ccc3[nH]ncc3c2c2c1CCCC2

Reference: ChEMBL document CHEMBL5329150, “STING antagonists, synthesized via Povarov-Doebner type multicomponent reaction” (RSC Med Chem, 2023)
